Source: patent US8404279B2, “Method for improving the bud quality of a plant” (Bayer CropScience AG, priority 2007, dated 2013)

System: pear trees (Conference cultivar)
Conditions: after the applications in 2004
Text: During the 2004 trial, three products were compared in an arbitrary block design with 10 trees per plot in four repeats: the observations were made on the 8 trees inside the plot. […] The applications were in the post-flower period at an interval of 10 days.
In 2005, the same applications were repeated on the same trees.

Substance: potassium phosphonate
- phytotoxicity: some phytotoxicity
